Measurements taken from patent US20140243272A1 (ALPHABETA, published 2014).
Values belong to the binder of their own block, whether it stands above or below them.

Experiments:
[1] = molecular target: T1, cellulose-bound decamer of V; assay: cellulose-bound decamer SPOT membrane
T1 construct: also called stretch of V
Experimental: (§1) To study binding of recombinant human CTproSP-C and its Brichos domain to cellulose-bound decamers of the indicated residues, decamers of the indicated amino acid residues were covalently attached to a cellulose SPOT membrane (Frank R, J Immunol Meth, 267:13-26, 2002). Recombinant human S-tagged CTproSP-C (SEQ ID NO: 20) and the (S-tagged) Brichos domain of human CTproSP-C was produced in E. coli as described in Example 1.
(§2) The membrane was incubated with 1 μg/ml CTproSP-C in 50 mM Tris, 137 mM NaCl, 2.7 mM KCl, pH 8, containing 0.05% Tween (T-TBS) for 1 h at 22° C. After blocking with 2% BSA for one hour and washing with T-TBS 4×1 h, the membranes were incubated with HRP-conjugated S-protein (Novagen, Madison, Wis.) diluted 1:5000. The membranes were then washed again as above, and bound S-tagged CTproSP-C was visualized by enhanced chemiluminescence, see FIG. 3A. CTproSP-C binds to stretches of V, I, L, F, M, or Y, but not to A, W, G, P, or T counterparts.

[2] = molecular target: T1, cellulose-bound decamer of V; assay: cellulose-bound decamer SPOT membrane, 1 µg/ml protein, S-protein-HRP, ECL
Experimental: as §1, §2

[3] = molecular target: T1, cellulose-bound decamer of V; assay: cellulose-bound decamer SPOT membrane, control
Experimental: as §1, §2

binding result [1]: binds
B1: Recombinant human CTproSP-CBrichos (human proSP-C^94-197), S-tagged (other)
chain: FSIGSTGLVVYDYQQLLIAYKPAPGTCCYIMKIAPESIPSLEALNRKVHNFQMECSLQAKPAVPTSKLGQAEGRDAGSAPSGGDPAFLGMAVNTLCGEVPLYYI
notes: also called Brichos domain of human CTproSP-C; Brichos region; not shown: S-tag and vector residues from pET-32c left after thrombin cleavage

B2: S-tagged recombinant human CTproSP-C (proSP-C^59-197) (other)
chain: GSGMKETAAAKFERQHMDSPDLGTDDDDKAMAHMSQKHTEMVLEMSIGAPEAQQRLALSEHLVTTATFSIGSTGLVVYDYQQLLIAYKPAPGTCCYIMKIAPESIPSLEALTRKVHNFQMECSLQAKPAVPTSKLGQAEGRDAGSAPSGGDPAFLGMAVSTLCGEVPLYYI
notes: SEC and ESI-MS show mainly trimers and oligomers of trimers; also called CTC; C-terminal domain of lung surfactant protein C precursor
binding result [2]: binds

B3: Recombinant human CTproSP-C^L188Q, S-tagged (other)
chain: HMSQKHTEMVLEMSIGAPEAQQRLALSEHLVTTATFSIGSTGLVVYDYQQLLIAYKPAPGTCCYIMKIAPESIPSLEALNRKVHNFQMECSLQAKPAVPTSKLGQAEGRDAGSAPSGGDPAFLGMAVNTQCGEVPLYYI
notes: also called mutant human CTproSP-C^L188Q; not shown: S-tag left after thrombin cleavage
binding result [3]: no binding
